For one data set, the system named is male Sprague-Dawley rats. Nature of the data set: Colorectal distension assay (CRD), visceral pain model, nociceptive threshold. The settings on record: for ED50 (M.P.E.=50%): at peak effect post-injection. The format is in vivo, rat.
Data set [1] relates to Male Sprague-Dawley adult rats. Nature of the data set: Place conditioning (place preference/aversion) in a black-white shuttle-box.

Molecules are shown by their SMILES. Several values for one entry are separate records, joined by “and”; a condition that tells them apart may be missing. Equal values may be shown once.

Consider `CN(C(=O)Cc1ccc(Cl)c(Cl)c1)C1CCC2(CCCO2)CC1N1CCCC1` (stereo not drawn), for which the duration of antinociception with male Sprague-Dawley rats (CRD, rat, SC) stood at 2 h. The “peak effect, time post injection” value in the data set on male Sprague-Dawley rats (CRD, rat, SC) was 15 min. Further, in the data set with male Sprague-Dawley rats (CRD, rat, SC), the “ED50 (M.P.E.=50%)” value is on record as 0.56 mg/kg. Besides, the “change of analgesic effect (M.P.E.) after n-BNI pretreatment compared to saline pretreatment” value with male Sprague-Dawley rats (n-BNI 10 mg/kg SC 48 hrs before, 15 (and 30) minutes post-injection) is on record as “neither fentanyl nor spiradoline single-dose ANC was significantly altered”. Further, the “percent of time spent in drug-associated compartment (score)” value in data set [1] (HDS1: high-dose spiradoline 1.2 mg/kg SC, first test, Group D, Test 1) was 34.67%; in data set [1] (HDS2: high-dose spiradoline 1.2 mg/kg SC, second test, Group D, Test 4) it was 29.10%; in data set [1] (LDS1: low-dose spiradoline 0.3 mg/kg SC, first test, Group D, Test 2), 45.28%; in data set [1] (LDS2: low-dose spiradoline 0.3 mg/kg SC, second test, Group C, Test 3) it was 44.03%; in data set [1] (MDS1: medium-dose spiradoline 0.6 mg/kg SC, first test, Group D, Test 3) it was 39.58%; in data set [1] (MDS2: medium-dose spiradoline 0.6 mg/kg SC, second test, Group C, Test 4), 38.38%.
For `CN(C(=O)Cc1cccc2occc12)[C@H]1CC[C@@]2(CCCO2)C[C@@H]1N1CCCC1`, in the data set on male Sprague-Dawley rats (CRD, rat, SC), the “peak effect, time post injection” value turned out to be 30 min; the “ED50 (M.P.E.=50%)” value was 0.077 (0.04-0.2) mg/kg and 0.077 mg/kg.

Values taken from patent US20100227876A1 (priority 2009, published 2010).
